Measurements from ChEMBL document CHEMBL1131614, “Novel calcium antagonists with both calcium overload inhibition and antioxidant activity. 1. 2-(3, 5-di-tert-butyl-4-hydroxyphenyl)-3-(aminopropyl)thiazolidinones” (J Med Chem, 1998).

The chains behind the UniProt entries cited, without tags or fusion partners.
UniProt P22002, whole entry: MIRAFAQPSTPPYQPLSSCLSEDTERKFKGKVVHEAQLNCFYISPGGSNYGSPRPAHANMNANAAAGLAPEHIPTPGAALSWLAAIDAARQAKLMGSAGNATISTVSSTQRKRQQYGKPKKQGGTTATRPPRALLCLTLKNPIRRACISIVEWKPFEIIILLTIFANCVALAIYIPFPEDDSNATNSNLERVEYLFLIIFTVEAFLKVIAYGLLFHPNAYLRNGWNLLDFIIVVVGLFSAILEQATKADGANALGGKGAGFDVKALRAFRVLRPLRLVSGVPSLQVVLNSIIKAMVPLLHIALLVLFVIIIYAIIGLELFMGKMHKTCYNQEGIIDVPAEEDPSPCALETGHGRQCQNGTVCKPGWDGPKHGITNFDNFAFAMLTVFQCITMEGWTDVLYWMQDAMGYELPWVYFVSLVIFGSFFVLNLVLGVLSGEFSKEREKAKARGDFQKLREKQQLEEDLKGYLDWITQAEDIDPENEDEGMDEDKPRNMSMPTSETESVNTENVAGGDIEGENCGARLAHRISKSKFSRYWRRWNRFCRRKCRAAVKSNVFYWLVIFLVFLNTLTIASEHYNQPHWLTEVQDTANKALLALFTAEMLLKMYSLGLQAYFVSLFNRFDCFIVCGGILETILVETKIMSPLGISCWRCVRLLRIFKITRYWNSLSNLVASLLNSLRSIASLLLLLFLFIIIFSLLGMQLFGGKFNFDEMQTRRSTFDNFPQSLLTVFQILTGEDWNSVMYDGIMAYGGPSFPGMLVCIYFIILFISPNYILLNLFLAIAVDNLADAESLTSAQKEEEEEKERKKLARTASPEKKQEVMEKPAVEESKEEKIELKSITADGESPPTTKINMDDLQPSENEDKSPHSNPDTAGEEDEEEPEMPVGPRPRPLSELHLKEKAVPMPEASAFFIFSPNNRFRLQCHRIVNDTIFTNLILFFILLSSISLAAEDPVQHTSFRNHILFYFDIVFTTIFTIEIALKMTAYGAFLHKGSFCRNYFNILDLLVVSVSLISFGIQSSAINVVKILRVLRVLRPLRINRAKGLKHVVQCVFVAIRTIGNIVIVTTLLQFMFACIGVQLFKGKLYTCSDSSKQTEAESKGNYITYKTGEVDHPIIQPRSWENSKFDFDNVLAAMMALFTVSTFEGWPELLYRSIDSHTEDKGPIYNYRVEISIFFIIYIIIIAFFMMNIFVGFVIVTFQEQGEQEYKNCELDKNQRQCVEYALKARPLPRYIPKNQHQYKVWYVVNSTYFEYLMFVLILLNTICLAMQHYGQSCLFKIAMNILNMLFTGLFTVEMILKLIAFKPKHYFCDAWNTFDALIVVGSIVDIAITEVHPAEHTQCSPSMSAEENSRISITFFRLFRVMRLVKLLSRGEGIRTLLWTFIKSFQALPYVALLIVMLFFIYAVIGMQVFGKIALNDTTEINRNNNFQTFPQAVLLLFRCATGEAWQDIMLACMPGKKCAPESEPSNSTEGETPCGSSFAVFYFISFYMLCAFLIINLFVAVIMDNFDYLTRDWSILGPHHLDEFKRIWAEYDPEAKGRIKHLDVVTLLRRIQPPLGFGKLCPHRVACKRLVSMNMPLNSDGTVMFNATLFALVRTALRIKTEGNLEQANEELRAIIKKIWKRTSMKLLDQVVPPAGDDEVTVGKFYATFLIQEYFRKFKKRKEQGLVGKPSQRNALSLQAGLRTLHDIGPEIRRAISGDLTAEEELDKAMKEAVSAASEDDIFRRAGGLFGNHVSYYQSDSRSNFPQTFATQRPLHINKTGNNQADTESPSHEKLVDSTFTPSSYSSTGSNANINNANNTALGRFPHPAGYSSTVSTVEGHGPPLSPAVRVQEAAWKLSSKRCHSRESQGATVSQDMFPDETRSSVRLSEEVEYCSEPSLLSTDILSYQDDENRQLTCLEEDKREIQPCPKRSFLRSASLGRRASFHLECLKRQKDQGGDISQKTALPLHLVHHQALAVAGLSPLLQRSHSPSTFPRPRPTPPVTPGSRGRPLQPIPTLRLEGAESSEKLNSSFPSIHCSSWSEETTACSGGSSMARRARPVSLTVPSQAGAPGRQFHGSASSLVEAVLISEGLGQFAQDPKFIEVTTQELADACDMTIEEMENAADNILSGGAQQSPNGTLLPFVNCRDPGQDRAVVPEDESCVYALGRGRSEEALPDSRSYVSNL

Molecular target: Voltage-dependent L-type calcium channel subunit alpha-1C (Rattus norvegicus, UniProt P22002)
Assay: In vitro inhibition of K+ induced contractions of the isolated rat aorta.
Assay type: functional, tissue-based

**Q.** With `COc1ccc(CN(C)CCCN2C(=O)CSC2c2cc(C(C)(C)C)c(O)c(C(C)(C)C)c2)cc1OC` (stereo unspecified) as the molecule, how does the IC50 read?
**A.** 120 nM
